Compound activity from PubChem.
Hits are enriched below; roughly 2.8% of the tested compounds scored in any of these assays.
PglD DTNB: inhibitors of Campylobacter jejuni PglD acetyltransferase. AID 602405. actives 0.098% (n = 360,000). purified PglD enzyme, DTNB colorimetric CoA detection. inhibition, % at 12.5 µM; in the data active = inhibition above about 16%, passing the limit was not always enough; inconclusive = no clear call, values can overlap the other calls
esBAF inh: blocks esBAF chromatin remodeling in mouse ES cells. reporter increase, % at 12.5 µM. AID 602393. Bmi1-luciferase knock-in reporter, 24 h; 100% = twice the neutral-well signal. actives 2% (n = 350,000); in the data active = activation above about 40%; inconclusive = no clear call, values can overlap the other calls;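 also: a rise in the Bmi1 reporter signal indicates esBAF inhibition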
Yeast UUG start: modulators of start codon recognition fidelity in yeast; AID 602363; activity score, % at 18.7 µM; S. cerevisiae UUG-firefly luciferase reporter, luminescence/redox ratio; actives 0.13% (n = 350,000);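 active = replicate mean at a twofold rise or more, about +100% in these data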;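 note: firefly luciferase made from a UUG start codon reports start codon fidelity; reporter light over untreated wells divided by growth signal over untreated wells; some hits fall short of that in this replicate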
miR122 inh: blocks miR-122 activity in Huh7 sensor cells; Huh7 miR-122 Renilla luciferase sensor, 48 h; neutral wells = 0, positive control = 100; activation (reporter increase), % at 12.5 µM; actives 0.3% (n = 340,000);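 active = mean replicate activation score at least 90 and every replicate individually at or above 90; inconclusive = only one of the two criteria met; inactive = neither criterion met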;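 also: higher luciferase means less miR-122 activity so hits act as miR-122 inhibitors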
MITF TRPM1 HTS: MITF TRPM1 promoter activation in melanoma cells; activation, % at 12.5 µM; actives 0.75% (n = 300,000); SK-MEL-5 TRPM1-promoter luciferase, 24 h; % of positive control, neutral wells = 0;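 active = mean activation of at least 80% with every replicate also reaching 80%; inconclusive = mean reaches 80% but some replicate falls short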
Wnt act: activators of Wnt/beta-catenin signaling | Wnt/beta-catenin reporter cell assay, activator, plate reader | activation, % at 9.35 µM | actives 1.2% (n = 300,000) | AID 743398; in the data active = activation above about 30%, passing the limit was not always enough; inconclusive = no clear call, values can overlap the other calls
A number is an active result; . = inactive; ? = inconclusive; / = no result.

SMILES	PglD DTNB	esBAF inh	Yeast UUG start	miR122 inh	MITF TRPM1 HTS	Wnt act
O=C(Nc1ccccc1Br)c1cc(=O)c2ccccc2o1	.	49.2	.	.	152.5	.
Cc1ccc(S(=O)(=O)N[C@@H]2CC[C@@H](CC(=O)O)O[C@H]2CO)cc1	.	.	.	.	/	/
C[C@H](CO)N1C[C@H](C)[C@@H](CN(C)S(=O)(=O)c2ccc(Cl)cc2)Oc2ccc(NS(=O)(=O)c3ccc(F)cc3)cc2C1=O	.	.	.	.	/	/
COc1ccc(NC(=S)Nc2ccccc2)cc1	.	.	.	.	.	.
Cc1ccc(NC(=S)c2ccc(N(C)C)cc2)cc1	/	.	/	.	.	45.6
COc1ccc(NC(=S)c2ccc(N(C)C)cc2)cc1	/	/	/	/	.	/
COc1ccc(NC(=S)c2ccccc2)cc1	.	61.3	.	.	83.1	.
COc1ccc(C(=S)Nc2ccc(N(C)C)cc2)cc1	.	.	.	.	.	68.4
CCC(=O)N1C[C@@H](C)[C@@H](OC)CN(C)C(=O)c2cc(NC(=O)Nc3ccccc3)ccc2OC[C@@H]1C	.	.	.	.	/	/
Cc1ccc(NS(=O)(=O)c2cccc3nsnc23)cc1	/	/	/	/	.	.
Cc1ccc(S(=O)(=O)Nc2c(C)ccc3nsnc23)cc1	.	.	.	138.0	/	/
COC(=O)CCc1nc2c(C#N)c(-c3ccc(Cl)cc3)ccn2n1	/	.	.	.	.	.
N#Cc1c(-c2ccc(Cl)cc2)ccn2nc(C3CCCCC3)nc12	.	/	.	.	90.1	.
CN1CCc2c(sc(/N=C/c3c[nH]c4ccccc34)c2C#N)C1	.	/	.	.	/	39.0
CN1CCc2c(sc(/N=C/c3c[nH]c4ccccc34)c2C(N)=O)C1	.	/	.	.	/	.
Cc1cccc(CCNc2nc3ccc(C)cc3n3cnnc23)c1	.	46.0	.	.	.	.
Cc1ccc(S(=O)(=O)Nc2ccc3c(c2)C(=O)N([C@@H](C)CO)C[C@H](C)[C@H](CN(C)C(=O)CCC(F)(F)F)OCCCC[C@H](C)O3)cc1	.	.	.	.	/	/
Cc1ccc(C2CC(c3cccs3)=NN2S(=O)(=O)c2ccc(C)cc2)cc1 (stereo unspecified)	.	/	.	98.1	.	.
c1ccc(CSc2ncnc3c2oc2ccccc23)cc1	.	/	.	.	.	/
c1coc(CSc2ncnc3c2oc2ccccc23)c1	.	55.8	.	.	/	35.0
Fc1ccccc1CSc1ncnc2c1oc1ccccc12	.	41.7	.	.	.	.
Cc1noc(C)c1S(=O)(=O)Nc1ccc2c(c1)C(=O)N([C@H](C)CO)C[C@@H](C)[C@@H](CN(C)C(=O)Cc1ccccc1)OCCCC[C@H](C)O2	.	.	.	.	/	/
C[C@@H]1CN([C@@H](C)CO)C(=O)c2cc(NS(=O)(=O)c3ccccc3)ccc2O[C@@H]1CN(C)S(=O)(=O)c1ccc(F)cc1	/	.	/	.	/	/
CCCCn1c(SCC(=O)N2CC(C)CC(C)C2)nc2cc(S(N)(=O)=O)ccc21 (stereo unspecified)	.	.	.	.	.	/
CCCCn1c(SCC2CCCCO2)nc2cc(S(N)(=O)=O)ccc21 (stereo unspecified)	/	/	/	/	.	40.4
SMILES	PglD DTNB	esBAF inh	Yeast UUG start	miR122 inh	MITF TRPM1 HTS	Wnt act
C/C(=N/NS(=O)(=O)c1ccc(C)cc1)c1c(O)c2ccccc2oc1=O	.	.	.	.	.	.
CCCCCN=C(C)c1c(O)c2ccccc2oc1=O	.	58.2	.	.	.	.
N#C/C(=C1/CCCCCN1)c1nc2ccccc2[nH]1	.	49.9	.	.	.	/
N#C/C(=C1\CCCN1)c1ccc2ccccc2n1	.	.	.	.	.	/
CC(C)c1ccc(C(C(C(=O)c2ccccc2)N2CCOCC2)N2CCOCC2)cc1 (stereo unspecified)	.	46.5	/	.	.	.
O=C(NCCc1cccs1)c1ccc(Cl)c(Cl)c1	/	/	/	/	93.8	36.8
O=C(NCCc1ccccc1)c1cccs1	.	/	.	.	.	.
Cc1occc1C(=O)NCCc1cccc(Cl)c1	.	52.0	.	.	.	/
O=C(NCCc1cccc(Cl)c1)c1cccs1	.	63.5	.	.	?	.
C[C@@H]1CN([C@H](C)CO)S(=O)(=O)c2ccc(C#CC3(O)CCCC3)cc2O[C@@H]1CN(C)C(=O)Cc1ccncc1	.	.	.	/	/	/
COc1ccc(/C=C2\SC(=O)N(CCC(=O)Nc3ccccc3)C2=O)cc1OC	/	/	/	/	.	/
COc1cc(/C=C2\SC(=O)N(CCN)C2=O)ccc1OS(=O)(=O)c1cc(C)ccc1C	/	/	/	/	.	39.0
CO[C@H](CN(C)C(=O)C1CCOCC1)[C@H](C)CN(C(=O)Nc1ccc(F)cc1)[C@@H](C)CO	.	.	/	/	/	/
O=C(COC(=O)c1ccccc1SCC(=O)NC1CCS(=O)(=O)C1)NC1CCS(=O)(=O)C1 (stereo unspecified)	/	/	/	/	.	/
CCNC(=O)NC(=O)COC(=O)c1ccccc1SCC(=O)NC(=O)NCC	.	/	.	.	.	53.1
CCNC(=O)[C@H]1[C@H](CO)[C@H]2Cn3c(ccc(-c4cncnc4)c3=O)[C@H]2N1Cc1ccc2c(c1)OCO2	.	.	/	/	/	/
O=C(C[C@H]1CC[C@H](NS(=O)(=O)c2ccc(F)cc2)[C@@H](CO)O1)N1CCc2ccccc2C1	.	.	.	/	/	/
CO[C@@H]1CN(C)C(=O)c2cc(NC(=O)Nc3ccc(Cl)cc3)ccc2OC[C@@H](C)N(C(=O)Nc2c(C)noc2C)C[C@@H]1C	.	.	/	.	/	/
O=C(c1nnsc1S(=O)c1ccc(Cl)cc1)N1CCOCC1 (stereo unspecified)	.	.	.	.	.	.
O=C(Nc1ccccc1)c1nnsc1S(=O)c1ccc(Cl)cc1 (stereo unspecified)	.	43.8	.	.	.	.
CC(C)CC1C(=O)N(Cc2cn(CCC3OCCCO3)nn2)CCS(=O)(=O)N1Cc1ccc(-c2ccc(Cl)cc2)cc1 (stereo unspecified)	/	.	/	.	/	.
CC(C)CC1C(=O)N(Cc2cn(CCC3OCCCO3)nn2)CCS(=O)(=O)N1Cc1ccc(-c2ccc(Cl)nc2)cc1 (stereo unspecified)	.	58.2	.	.	/	.
Clc1ccc(-c2nnc(CCc3ccccc3)o2)c(Cl)c1	.	59.8	.	.	?	.
Oc1ccccc1-c1nnc(COc2ccc(Cl)cc2Cl)o1	.	.	.	.	96.0	?
C[C@@H]1CN([C@H](C)CO)C(=O)c2cccc(NC(=O)C3CCOCC3)c2O[C@H]1CN(C)C(=O)Nc1cccc2ccccc12	.	.	.	.	/	/
CCCNC(=O)Nc1ccc2c(c1)C(=O)N(C)C[C@@H](OC)[C@@H](C)CN(Cc1ccncc1)[C@@H](C)CO2	.	.	/	.	/	/
Clc1ccccc1OCCCOc1cccc2cccnc12	.	55.4	.	/	/	.
O=[N+]([O-])c1ccccc1OCCCOc1cccc2cccnc12	.	59.7	.	.	/	.
O=Cc1ccccc1OCCCOc1cccc2cccnc12	.	.	.	.	.	.
COc1cccc(OC)c1OCCCOc1cccc2cccnc12	.	?	.	.	.	.
